Assay results from BindingDB's records for 22206546.

Protein sequences, listed by entry. Tags and fused reporters are not part of them. Residues count along the entry.
UniProt P22303, 32-614 limits assumed: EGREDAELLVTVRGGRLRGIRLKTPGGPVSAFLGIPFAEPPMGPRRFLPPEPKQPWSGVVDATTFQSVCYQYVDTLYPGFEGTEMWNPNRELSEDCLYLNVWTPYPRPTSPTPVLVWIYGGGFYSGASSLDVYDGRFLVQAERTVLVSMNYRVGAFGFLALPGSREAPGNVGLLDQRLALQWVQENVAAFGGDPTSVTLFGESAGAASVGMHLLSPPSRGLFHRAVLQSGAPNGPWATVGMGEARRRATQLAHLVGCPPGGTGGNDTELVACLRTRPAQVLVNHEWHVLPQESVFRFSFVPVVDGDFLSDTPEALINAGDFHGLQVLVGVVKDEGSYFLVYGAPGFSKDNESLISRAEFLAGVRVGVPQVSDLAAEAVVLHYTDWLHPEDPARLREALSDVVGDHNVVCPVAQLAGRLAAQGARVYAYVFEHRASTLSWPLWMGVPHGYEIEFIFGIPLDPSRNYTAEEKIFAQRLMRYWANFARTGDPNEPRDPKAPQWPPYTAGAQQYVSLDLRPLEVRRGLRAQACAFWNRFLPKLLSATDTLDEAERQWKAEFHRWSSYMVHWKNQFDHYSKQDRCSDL
UniProt P06276, 29-602 limits assumed: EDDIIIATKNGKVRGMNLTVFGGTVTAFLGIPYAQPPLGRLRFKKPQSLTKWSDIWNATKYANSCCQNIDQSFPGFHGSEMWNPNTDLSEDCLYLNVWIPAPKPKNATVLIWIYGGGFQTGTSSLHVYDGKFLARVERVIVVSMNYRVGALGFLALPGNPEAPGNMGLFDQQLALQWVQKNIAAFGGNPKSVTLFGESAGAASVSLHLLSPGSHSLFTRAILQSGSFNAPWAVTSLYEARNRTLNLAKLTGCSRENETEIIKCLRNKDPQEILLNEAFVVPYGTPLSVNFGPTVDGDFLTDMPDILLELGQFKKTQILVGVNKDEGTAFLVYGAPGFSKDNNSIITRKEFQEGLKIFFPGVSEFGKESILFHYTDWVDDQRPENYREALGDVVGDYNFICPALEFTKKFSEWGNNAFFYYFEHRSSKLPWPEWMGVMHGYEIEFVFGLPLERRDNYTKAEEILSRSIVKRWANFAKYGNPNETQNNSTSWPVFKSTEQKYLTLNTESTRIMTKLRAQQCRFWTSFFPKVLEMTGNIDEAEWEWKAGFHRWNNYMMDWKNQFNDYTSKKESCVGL

What was measured:
Acetylcholinesterase = Acetylcholinesterase (Homo sapiens, UniProt P22303); assay: Inhibition of human recombinant AChE using acetylthiocholine as substrate after 1 hr by Ellman method
Cholinesterase = Cholinesterase (Homo sapiens, UniProt P06276); assay: Inhibition of human recombinant BChE using butyrylthiocholine as substrate after 20 mins by Ellman method

Row | SMILES | pIC50 (Acetylcholinesterase) | pIC50 (Cholinesterase)
1 | COCCN=C(CN=O)N(C)C | < 3.70 | < 3.70
2 | CN(C)C(CN=O)=NC1CCC1 | < 3.70 | < 3.70
3 | CN(C)C(CN=O)=NCc1ccccc1 |  | 3.85
4 | CCCCN1CC(C)(C)CN=C1CN=O |  | 3.94
5 | CCCCCN=C(CN=O)N(C)C |  | 3.74
6 | CCCN=C(CN=O)N(C)C | < 3.70 | < 3.70
7 | CN(C)C(CN=O)=Nc1ccccc1 | < 3.70 | < 3.70
8 | CN(C)C(CN=O)=NC1CC1 | < 3.70 | < 3.70
9 | COCCCN=C(CN=O)N(C)C | < 3.70 | < 3.70
10 | CCCCN1CCN=C1CN=O | < 3.70 | < 3.70
11 | CCCCN1CCCN=C1CN=O | 3.80 | 

pIC50: −log10 of the molar value.
